Experimental data: PMC10253498 (RSC Advances, 2023)

By UniProt entry, the sequences of proteins in these tests, tags left out. Residues count along the entry.
UniProt P22303, 32-614, species assumed: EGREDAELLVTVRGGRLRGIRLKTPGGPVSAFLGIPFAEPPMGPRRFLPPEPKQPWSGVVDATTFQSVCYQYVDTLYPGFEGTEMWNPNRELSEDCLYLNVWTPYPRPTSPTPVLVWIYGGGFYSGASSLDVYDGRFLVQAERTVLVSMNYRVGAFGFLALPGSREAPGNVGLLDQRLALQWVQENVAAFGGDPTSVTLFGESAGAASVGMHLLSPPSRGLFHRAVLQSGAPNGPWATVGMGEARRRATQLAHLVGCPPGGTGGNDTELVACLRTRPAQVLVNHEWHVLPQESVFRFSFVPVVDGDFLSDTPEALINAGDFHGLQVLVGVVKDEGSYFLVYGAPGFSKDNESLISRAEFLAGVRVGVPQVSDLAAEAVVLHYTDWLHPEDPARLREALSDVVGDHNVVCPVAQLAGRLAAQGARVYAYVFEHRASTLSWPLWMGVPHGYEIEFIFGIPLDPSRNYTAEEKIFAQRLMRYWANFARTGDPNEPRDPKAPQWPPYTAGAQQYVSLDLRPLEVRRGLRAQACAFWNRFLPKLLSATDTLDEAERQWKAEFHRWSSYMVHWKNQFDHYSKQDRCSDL
UniProt P21397, whole entry: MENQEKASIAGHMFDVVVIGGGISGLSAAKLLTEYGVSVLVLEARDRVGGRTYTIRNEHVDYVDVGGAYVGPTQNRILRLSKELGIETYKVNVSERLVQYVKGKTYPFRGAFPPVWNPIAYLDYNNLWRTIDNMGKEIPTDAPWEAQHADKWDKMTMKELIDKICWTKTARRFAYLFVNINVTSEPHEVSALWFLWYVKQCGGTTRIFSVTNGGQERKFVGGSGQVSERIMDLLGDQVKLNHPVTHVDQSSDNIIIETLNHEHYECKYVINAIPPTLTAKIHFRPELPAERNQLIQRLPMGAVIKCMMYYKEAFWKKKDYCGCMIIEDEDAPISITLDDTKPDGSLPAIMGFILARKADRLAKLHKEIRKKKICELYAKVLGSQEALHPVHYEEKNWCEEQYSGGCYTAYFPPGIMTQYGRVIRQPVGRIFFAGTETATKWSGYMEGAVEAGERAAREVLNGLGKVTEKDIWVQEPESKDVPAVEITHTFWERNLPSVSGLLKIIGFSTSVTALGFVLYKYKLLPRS

Legend:
[1] = molecular target: T1, acetyl cholinesterase (AChE) (Homo sapiens, UniProt P22303)
[2] = molecular target: T1, acetyl cholinesterase (AChE); assay: biochemical
[3] = molecular target: monoamine oxidase A (MAO-A, extracted) (Homo sapiens, UniProt P21397)

SMILES | inhibition against AChE (in words) [1] | IC50 [2] | selectivity for MAO-A over MAO-B and AChE enzymes [3] | AChE %age inhibition ([1]; test concentration not given)
c1ccc(Nc2nnc(-c3ccncc3)o2)cc1 [Compound 4d, N-Phenyl-5-(pyridin-4-yl)-1,3,4-oxadiazol-2-amine] | potent inhibition; also recorded: promising inhibitory effects | 830 ± 7 nM |  | 
Cc1ccccc1Nc1nnc(-c2ccccc2)o1 [Compound 4n, 5-Phenyl-N-(o-tolyl)-1,3,4-oxadiazol-2-amine] | potent inhibition | 1230 ± 969 nM |  | 
CC(C)c1ccc(Nc2nnc(-c3ccc(C(F)(F)F)cc3)o2)cc1 [Compound 4m, N-(4-Isopropylphenyl)-5-(4-(trifluoromethyl)phenyl)-1,3,4-oxadiazol-2-amine] | potent inhibition | 2670 ± 29 nM | ~25 fold | 
Fc1ccccc1Nc1nnc(Cc2ccccc2C(F)(F)F)o1 [Compound 4c, N-(2-Fluorophenyl)-5-(2-(trifluoromethyl)benzyl)-1,3,4-oxadiazol-2-amine] | moderate to weak inhibition |  |  | 36.12% ^c

Entries after “also recorded” stand apart in the source; their conditions may differ. Marks after values point to notes of the source that are not given here.
